This note sets out measurements from paper PMC2710984 (International Journal of Peptide Research and Therapeutics, 2006).

Chains of the proteins cited; added tags and fusions are not shown. Residues count along the entry.
UniProt P98170, 241-356 limits assumed: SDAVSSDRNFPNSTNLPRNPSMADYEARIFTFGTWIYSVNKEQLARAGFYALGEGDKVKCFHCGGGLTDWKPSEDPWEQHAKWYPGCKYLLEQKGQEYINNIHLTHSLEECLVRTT

The test deals with XIAP BIR3 (Homo sapiens, UniProt P98170). Description: Peptide–BIR3 binding assay.

On to `CC(C)[C@H](NC(=O)[C@H](C)O)C(=O)N1CCC[C@H]1C(=O)N[C@@H](Cc1ccccc1)C(N)=O` [Compound 14, Lac–VPF], for which the “inhibitory activity against Smac–BIR3 interaction (in words)” value is reported as “total loss of inhibitory activity”. In turn, `CC(C)[C@H](NC(=O)[C@H](C)N)C(=O)N1CCCC[C@H]1C(=O)N[C@@H](Cc1ccccc1)C(N)=O` [Compound 21, AV–Pip–F] came in with an IC50 of 710 nM.
